Measurements reported in US20250084097A1, “MACROCYCLIC AMIDE COMPOUNDS AND APPLICATION THEREOF” (Medshine Discovery Inc., priority 2021, published 2025).

Chains of the proteins cited; added tags and fusions are not shown.
UniProt P00533, whole entry T790M/C797S/L858R: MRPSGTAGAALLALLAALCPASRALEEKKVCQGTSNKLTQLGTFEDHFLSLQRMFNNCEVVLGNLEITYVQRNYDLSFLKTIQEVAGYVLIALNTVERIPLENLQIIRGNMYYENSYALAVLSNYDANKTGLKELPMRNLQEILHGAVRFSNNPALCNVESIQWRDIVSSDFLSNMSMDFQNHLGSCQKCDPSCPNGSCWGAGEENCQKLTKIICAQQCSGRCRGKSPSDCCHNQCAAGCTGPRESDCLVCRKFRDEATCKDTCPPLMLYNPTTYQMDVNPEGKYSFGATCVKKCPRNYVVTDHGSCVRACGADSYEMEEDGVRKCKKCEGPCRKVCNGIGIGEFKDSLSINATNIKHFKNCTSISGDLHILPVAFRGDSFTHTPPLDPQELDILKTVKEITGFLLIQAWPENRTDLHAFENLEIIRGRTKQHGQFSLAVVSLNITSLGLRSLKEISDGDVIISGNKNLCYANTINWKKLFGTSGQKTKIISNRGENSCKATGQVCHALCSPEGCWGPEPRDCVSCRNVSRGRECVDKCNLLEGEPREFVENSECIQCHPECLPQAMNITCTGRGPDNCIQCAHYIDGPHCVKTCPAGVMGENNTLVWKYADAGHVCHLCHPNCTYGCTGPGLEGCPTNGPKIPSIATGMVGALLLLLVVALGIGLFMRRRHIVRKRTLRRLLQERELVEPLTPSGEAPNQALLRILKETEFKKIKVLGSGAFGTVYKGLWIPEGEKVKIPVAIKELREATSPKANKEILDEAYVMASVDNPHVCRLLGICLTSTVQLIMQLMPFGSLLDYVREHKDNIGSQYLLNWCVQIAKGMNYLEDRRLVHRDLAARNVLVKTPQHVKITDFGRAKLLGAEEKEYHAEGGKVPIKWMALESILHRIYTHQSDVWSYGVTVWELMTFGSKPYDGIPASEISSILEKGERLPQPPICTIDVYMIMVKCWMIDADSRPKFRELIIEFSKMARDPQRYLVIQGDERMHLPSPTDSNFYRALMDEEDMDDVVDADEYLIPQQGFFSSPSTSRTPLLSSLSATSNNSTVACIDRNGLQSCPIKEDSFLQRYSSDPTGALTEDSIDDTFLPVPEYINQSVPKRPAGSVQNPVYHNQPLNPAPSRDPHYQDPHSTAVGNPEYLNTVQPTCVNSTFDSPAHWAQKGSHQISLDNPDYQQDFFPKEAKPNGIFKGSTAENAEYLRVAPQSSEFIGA

What follows are molecules tested against Ba/F3-FL-EGFR (L858R/T790M/C797S) (Homo sapiens, UniProt P00533, T790M/C797S/L858R, cells depend on it) (assay: Cell proliferation inhibition, CellTiter-Glo). Settings: read-out: Cell half-maximal inhibition concentration IC50 Ba/F3-FL-EGFR (L858R/T790M/C797S), 72 hours.
Format: cell-based

`Cc1cc2cc(n1)-c1cnn(C)c1OCCC[C@@H](C)CN1C(=NC2=O)Nc2cc(Cl)c(N=S3(=O)CCOCC3)cc21` and `Cc1cc2cc(n1)-c1cnn(C)c1OCCC[C@@H](C)CN1C(=NC2=O)Nc2cc(Cl)c(N=S3(=O)CCCC3)cc21` are within 1.5-fold of each other in GI50: 6.5 nM for the first, 6.4 nM for the second.

Going from `Cc1cc2cc(n1)-c1cnn(C)c1OCCC[C@@H](C)CN1C(=NC2=O)Nc2ccc(N=S3(=O)CCCC3)c(Cl)c21` to `Cc1cc2cc(n1)-c1cnn(C)c1OCCC[C@@H](C)CN1C(=NC2=O)Nc2ccc(N=S3(=O)CCOCC3)c(Cl)c21`, the GI50 rises from 4.6 nM to 8.6 nM (1.9-fold).
